Experimental data: patent US20090253669A1, “Substituted Sulfonamide Compounds” (GRUENENTHAL GmbH, priority 2008, published 2009)

Sequences of proteins named here, by UniProt entry; tags and fusion partners are left off.
UniProt P35372, whole entry, looked up: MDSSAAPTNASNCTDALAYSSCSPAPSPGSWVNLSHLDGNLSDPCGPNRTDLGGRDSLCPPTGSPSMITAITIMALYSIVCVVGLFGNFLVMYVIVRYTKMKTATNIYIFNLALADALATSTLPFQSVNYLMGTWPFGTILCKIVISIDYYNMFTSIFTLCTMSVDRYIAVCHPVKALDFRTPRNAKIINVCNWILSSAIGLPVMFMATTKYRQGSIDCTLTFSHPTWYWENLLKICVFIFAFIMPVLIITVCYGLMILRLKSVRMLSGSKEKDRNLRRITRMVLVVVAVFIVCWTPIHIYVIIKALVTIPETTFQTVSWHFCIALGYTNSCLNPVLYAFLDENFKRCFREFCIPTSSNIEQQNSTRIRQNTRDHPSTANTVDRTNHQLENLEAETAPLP

Target: human μ opiate receptor (Homo sapiens, UniProt P35372)
Assay: [3H]-naloxone displacement, SPA, membranes of CHO-K1 cells
Details: 1 μM test substance; inhibition of specific binding of 1 nmol/l [3H]-naloxone

| SMILES | μ opioid receptor [1 μM] % inhibition |
| --- | --- |
| CN1CCN(C2(c3ccccc3)CCN(C(=O)CC3CCCCN3S(=O)(=O)c3cccc(C(F)(F)F)c3)CC2)CC1 (stereo not shown) [Compound 64, 1-(4-(4-methylpiperazin-1-yl)-4-phenylpiperidin-1-yl)-2-(1-(3-(trifluoromethyl)phenylsulfonyl)piperidin-2-yl)ethanone] | 12% |
| COc1cc(C)c(S(=O)(=O)N2CCCCC2COCC(=O)N2CCC(Cc3ccccc3)(N(C)C)CC2)c(C)c1 (stereo not shown) [Compound 65, 1-(4-benzyl-4-(dimethylamino)piperidin-1-yl)-2-((1-(4-methoxy-2,6-dimethylphenylsulfonyl)piperidin-2-yl)methoxy)ethanone] | 19% |
| COc1cc(C)c(S(=O)(=O)N2CCCCC2COCC(=O)N(C)CC2CCC(c3ccccc3)(N3CCCC3)CC2)c(C)c1 (stereo not shown) [Compound 66, 2-((1-(4-methoxy-2,6-dimethylphenylsulfonyl)piperidin-2-yl)methoxy)-N-methyl-N-((4-phenyl-4-(pyrrolidin-1-yl)cyclohexyl)methyl)acetamide] | 31% |
| COc1cc(C)c(S(=O)(=O)N2CCCCC2COCC(=O)N(C)CCC2CCC(Cc3ccccc3)(N3CCCC3)CC2)c(C)c1 (stereo not shown) [Compound 68, N-(2-(4-benzyl-4-(pyrrolidin-1-yl)cyclohexyl)ethyl)-2-((1-(4-methoxy-2,6-dimethylphenylsulfonyl)piperidin-2-yl)methoxy)-N-methylacetamide] | 41% |
| COc1cc(C)c(S(=O)(=O)N(C)CCOCC(=O)N2CCC(c3ccccc3)(N3CCN(c4ccncc4)CC3)CC2)c(C)c1 [Compound 69, 4-methoxy-N,2,6-trimethyl-N-(2-(2-oxo-2-(4-phenyl-4-(4-(pyridin-4-yl)piperazin-1-yl)piperidin-1-yl)ethoxy)ethyl)benzenesulfonamide] | 36% |
| COc1cc(C)c(S(=O)(=O)N2CCCCC2COCC(=O)N2CCC(c3ccc(F)cc3)(N3CCN(C)CC3)CC2)c(C)c1 (stereo not shown) [Compound 70, 1-(4-(4-fluorophenyl)-4-(4-methylpiperazin-1-yl)piperidin-1-yl)-2-((1-(4-methoxy-2,6-dimethylphenylsulfonyl)piperidin-2-yl)methoxy)ethanone] | 13% |
| CN(C)C1(CCc2ccccc2)CCN(C(=O)CC2CCCCN2S(=O)(=O)c2cccc(C(F)(F)F)c2)CC1 (stereo not shown) [Compound 71, 1-(4-(dimethylamino)-4-phenethylpiperidin-1-yl)-2-(1-(3-(trifluoromethyl)phenylsulfonyl)piperidin-2-yl)ethanone] | 28% |
| COc1cc(C)c(S(=O)(=O)N(C)CCOCC(=O)N(C)CCC2CCC(c3ccccc3)(N(C)C)CC2)c(C)c1 (stereo not shown) [Compound 72, N-(2-(4-(dimethylamino)-4-phenylcyclohexyl)ethyl)-2-(2-(4-methoxy-N,2,6-trimethylphenylsulfonamido)ethoxy)-N-methylacetamide] | 96% |
| COc1cc(C)c(S(=O)(=O)N2CCCCC2COCC(=O)N(C)CCC2CCC(CCc3ccccc3)(N(C)C)CC2)c(C)c1 (stereo not shown) [Compound 73, N-(2-(4-(dimethylamino)-4-phenethylcyclohexyl)ethyl)-2-((1-(4-methoxy-2,6-dimethylphenylsulfonyl)piperidin-2-yl)methoxy)-N-methylacetamide] | 40% |
| CN(CCCC1CCC(Cc2ccccc2)(N2CCCC2)CC1)C(=O)CC(NS(=O)(=O)c1ccc2ccccc2c1)c1ccccc1 (stereo not shown) [Compound 74, N-(3-(4-benzyl-4-(pyrrolidin-1-yl)cyclohexyl)propyl)-N-methyl-3-(naphthalene-2-sulfonamido)-3-phenylpropanamide] | 25% |
| CN(CCC1CCC(CCc2ccccc2)(N(C)C)CC1)C(=O)CC1CCCCN1S(=O)(=O)c1cccc(C(F)(F)F)c1 (stereo not shown) [Compound 76, N-(2-(4-(dimethylamino)-4-phenethylcyclohexyl)ethyl)-N-methyl-2-(1-(3-(trifluoromethyl)phenylsulfonyl)piperidin-2-yl)acetamide] | 43% |
| COc1cc(C)c(S(=O)(=O)N2CCCCC2COCC(=O)N2CCC(CCc3ccccc3)(N3CCN(C)CC3)CC2)c(C)c1 (stereo not shown) [Compound 77, 2-((1-(4-methoxy-2,6-dimethylphenylsulfonyl)piperidin-2-yl)methoxy)-1-(4-(4-methylpiperazin-1-yl)-4-phenethylpiperidin-1-yl)ethanone] | 38% |
| COc1cc(C)c(S(=O)(=O)N2CCCCC2COCC(=O)N(C)CC2CCC(Cc3ccccc3)(N3CCCC3)CC2)c(C)c1 (stereo not shown) [Compound 78, N-((4-benzyl-4-(pyrrolidin-1-yl)cyclohexyl)methyl)-2-((1-(4-methoxy-2,6-dimethylphenylsulfonyl)piperidin-2-yl)methoxy)-N-methylacetamide] | 15% |
| CN(CCCC1CCC(CCc2ccccc2)(N2CCCC2)CC1)C(=O)CC(NS(=O)(=O)c1ccc2ccccc2c1)c1ccccc1 (stereo not shown) [Compound 79, N-methyl-3-(naphthalene-2-sulfonamido)-N-(3-(4-phenethyl-4-(pyrrolidin-1-yl)cyclohexyl)propyl)-3-phenylpropanamide] | 6% |
| Cc1cc(S(=O)(=O)N2CCCCC2CCC(=O)N2CCC(Cc3ccccc3)(N(C)C)CC2)c(C)cc1Cl (stereo not shown) [Compound 80, 1-(4-benzyl-4-(dimethylamino)piperidin-1-yl)-3-(1-(4-chloro-2,5-dimethylphenylsulfonyl)piperidin-2-yl)propan-1-one] | 61% |
| COc1cc(C)c(S(=O)(=O)N2CCCCC2COCC(=O)N(C)CCC2CCC(c3ccccc3)(N(C)C)CC2)c(C)c1 (stereo not shown) [Compound 81, N-(2-(4-(dimethylamino)-4-phenylcyclohexyl)ethyl)-2-((1-(4-methoxy-2,6-dimethylphenylsulfonyl)piperidin-2-yl)methoxy)-N-methylacetamide] | 96% |
| CN1CCN(C2(c3ccccc3)CCN(C(=O)CC(NS(=O)(=O)c3ccc4ccccc4c3)c3ccccc3)CC2)CC1 (stereo not shown) [Compound 82, N-(3-(4-(4-methylpiperazin-1-yl)-4-phenylpiperidin-1-yl)-3-oxo-1-phenylpropyl)naphthalene-2-sulfonamide] | 22% |
| COc1cc(C)c(S(=O)(=O)N(C)CCOCC(=O)N(C)CCCC2CCC(c3ccccc3)(N3CCCC3)CC2)c(C)c1 (stereo not shown) [Compound 83, 2-(2-(4-methoxy-N,2,6-trimethylphenylsulfonamido)ethoxy)-N-methyl-N-(3-(4-phenyl-4-(pyrrolidin-1-yl)cyclohexyl)propyl)acetamide] | 63% |
| COc1cc(C)c(S(=O)(=O)N2CCCCC2COCC(=O)N(C)CCC2CCC(Cc3ccccc3)(N(C)C)CC2)c(C)c1 (stereo not shown) [Compound 84, N-(2-(4-benzyl-4-(dimethylamino)cyclohexyl)ethyl)-2-((1-(4-methoxy-2,6-dimethylphenylsulfonyl)piperidin-2-yl)methoxy)-N-methylacetamide] | 61% |
| COc1cc(C)c(S(=O)(=O)N(C)CCOCC(=O)N(C)CCCC2CCC(Cc3ccccc3)(N3CCCC3)CC2)c(C)c1 (stereo not shown) [Compound 85, N-(3-(4-benzyl-4-(pyrrolidin-1-yl)cyclohexyl)propyl)-2-(2-(4-methoxy-N,2,6-trimethylphenylsulfonamido)ethoxy)-N-methylacetamide] | 14% |
| CN(CCC1CCC(Cc2ccccc2)(N(C)C)CC1)C(=O)CC(NS(=O)(=O)c1ccc2ccccc2c1)c1ccccc1 (stereo not shown) [Compound 86, N-(2-(4-benzyl-4-(dimethylamino)cyclohexyl)ethyl)-N-methyl-3-(naphthalene-2-sulfonamido)-3-phenylpropanamide] | 76% |
| COc1cc(C)c(S(=O)(=O)N(C)CCOCC(=O)N2CCC(CCc3ccccc3)(N3CCN(C)CC3)CC2)c(C)c1 [Compound 87, 4-methoxy-N,2,6-trimethyl-N-(2-(2-(4-(4-methylpiperazin-1-yl)-4-phenethylpiperidin-1-yl)-2-oxoethoxy)ethyl)benzenesulfonamide] | 27% |
| COc1cc(C)c(S(=O)(=O)N2CCCCC2COCC(=O)N(C)CCCC2CCC(Cc3ccccc3)(N3CCCC3)CC2)c(C)c1 (stereo not shown) [Compound 88, N-(3-(4-benzyl-4-(pyrrolidin-1-yl)cyclohexyl)propyl)-2-((1-(4-methoxy-2,6-dimethylphenylsulfonyl)piperidin-2-yl)methoxy)-N-methylacetamide] | 14% |
| CN(CC1CCC(CCc2ccccc2)(N2CCCC2)CC1)C(=O)CC(NS(=O)(=O)c1ccc2ccccc2c1)c1ccccc1 (stereo not shown) [Compound 89, N-methyl-3-(naphthalene-2-sulfonamido)-N-((4-phenethyl-4-(pyrrolidin-1-yl)cyclohexyl)methyl)-3-phenylpropanamide] | 47% |
| COc1cc(C)c(S(=O)(=O)N(C)CCOCC(=O)N(C)CCCC2CCC(CCc3ccccc3)(N3CCCC3)CC2)c(C)c1 (stereo not shown) [Compound 91, 2-(2-(4-methoxy-N,2,6-trimethylphenylsulfonamido)ethoxy)-N-methyl-N-(3-(4-phenethyl-4-(pyrrolidin-1-yl)cyclohexyl)propyl)acetamide] | 7% |
| CN(CC1CCC(c2ccccc2)(N2CCCC2)CC1)C(=O)CC(NS(=O)(=O)c1ccc2ccccc2c1)c1ccccc1 (stereo not shown) [Compound 92, N-methyl-3-(naphthalene-2-sulfonamido)-3-phenyl-N-((4-phenyl-4-(pyrrolidin-1-yl)cyclohexyl)methyl)propanamide] | 83% |
| CN(CCCC1CCC(Cc2ccccc2)(N2CCCC2)CC1)C(=O)CC1CCCCN1S(=O)(=O)c1cccc(C(F)(F)F)c1 (stereo not shown) [Compound 93, N-(3-(4-benzyl-4-(pyrrolidin-1-yl)cyclohexyl)propyl)-N-methyl-2-(1-(3-(trifluoromethyl)phenylsulfonyl)piperidin-2-yl)acetamide] | 11% |
| CN(CC1CCC(Cc2ccccc2)(N2CCCC2)CC1)C(=O)CC1CCCCN1S(=O)(=O)c1cccc(C(F)(F)F)c1 (stereo not shown) [Compound 94, N-((4-benzyl-4-(pyrrolidin-1-yl)cyclohexyl)methyl)-N-methyl-2-(1-(3-(trifluoromethyl)phenylsulfonyl)piperidin-2-yl)acetamide] | 5% |
